Experimental findings from patent publication US9533973B2, “Allosteric modulators of 5-hydroxytryptamine 2C receptor (5-HT2CR)” (THE BOARD OF REGENTS OF THE UNIVERSITY OF TEXAS SYSTEM, priority 2011, dated 2017) are described below.

Amino acid sequences for entries named in this document (tags omitted). Residues count along the entry.
UniProt P28335, 33-458 limits assumed: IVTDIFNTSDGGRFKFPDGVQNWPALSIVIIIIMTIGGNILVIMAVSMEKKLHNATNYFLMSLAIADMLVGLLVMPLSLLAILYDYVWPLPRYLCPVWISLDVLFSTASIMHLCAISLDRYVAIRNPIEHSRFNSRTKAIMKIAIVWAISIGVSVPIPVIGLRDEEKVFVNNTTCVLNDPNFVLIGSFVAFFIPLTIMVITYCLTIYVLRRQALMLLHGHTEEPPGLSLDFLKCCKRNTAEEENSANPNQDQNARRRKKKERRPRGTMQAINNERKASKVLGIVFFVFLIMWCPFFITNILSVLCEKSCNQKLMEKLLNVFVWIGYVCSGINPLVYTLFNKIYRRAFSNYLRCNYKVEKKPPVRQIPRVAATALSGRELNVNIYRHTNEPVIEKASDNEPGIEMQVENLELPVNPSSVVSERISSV

In general, EC50 refers to the concentration at which the effect is half-maximal.

Each structure is given as a SMILES string.

The target of data set [1] is human 5-HT2CR (Homo sapiens, UniProt P28335). Description: 5-HT induced intracellular calcium (Cai++) release assay in live 5-HT2CR-CHO cells. As to conditions: 5-HT-induced Cai++ release. As for the experimental part: Selected results for the biological characterization of the synthesized compounds can be found in Ding et al., ACS Chem. Neurosci., 3, 538-545, 2012, and also described herein. The biological activity is assessed using an intracellular calcium (Cai^++) release assay. The best-characterized intracellular signaling pathway of the 5-HT2CR is the activation of phospholipase C (PLCβ) via Gαq/11 proteins and the production of diacylglycerol (DAG) and inositol-1,4,5-trisphosphate (IP3), leading to increased Cai^++ release from intracellular stores (Berg et al., Neuropharmacology 55, 969-76, 2008). Functional characterization of our synthetic PNU-69176E (CYD-1-78-2) and its diastereomer CYD-1-78-1 was determined by utilizing an Cai^++ release assay in live cells in which Cai^++ levels can be regarded as an outcome measure of activation of the 5-HT2CR signaling pathway (Berg et al., Neuropharmacology 55, 969-76, 2008). […]
Changes in Cai^++ levels were determined using the calcium sensitive dye Calcium 4 (FLIPR No-wash kit, Molecular Devices, Sunnyvale, Calif., part #R8142). […] Fluorescence (λex=485 nm, λem=525 nm) was measured with a FlexStation3 (Molecular Devices). […] Addition of 20 μL of 5× concentrated tested compound occurred at 17 sec and fluorescence was recorded every 1.7 sec for 90 sec to determine any innate agonist activity. […]
(A change in cytosolic calcium serves as a functional read-out for many receptors and channels.)

The nature of data set [2]: Solubility of representative compounds (Table 1). Type of data set: physicochemical. The settings on record: solvents listed.

Take `CS[C@H]1O[C@H]([C@H](NC(=O)c2ccccc2C2CCNCC2)[C@H](C)Cl)[C@H](O)[C@H](O)[C@H]1O`: the EC50 in data set [1] was 10.3 nM. In addition, the Solubility result in data set [2] was “H2O, EtOH, DMSO”.
